Measured values published in article PMC10938434, “Design, Synthesis, and Biological Effect Studies of Novel Benzofuran–Thiazolylhydrazone Derivatives as Monoamine Oxidase Inhibitors” (ACS Omega, 2024).

Protein sequences, listed by entry. Tags and fused reporters are not part of them.
UniProt P21397, whole entry: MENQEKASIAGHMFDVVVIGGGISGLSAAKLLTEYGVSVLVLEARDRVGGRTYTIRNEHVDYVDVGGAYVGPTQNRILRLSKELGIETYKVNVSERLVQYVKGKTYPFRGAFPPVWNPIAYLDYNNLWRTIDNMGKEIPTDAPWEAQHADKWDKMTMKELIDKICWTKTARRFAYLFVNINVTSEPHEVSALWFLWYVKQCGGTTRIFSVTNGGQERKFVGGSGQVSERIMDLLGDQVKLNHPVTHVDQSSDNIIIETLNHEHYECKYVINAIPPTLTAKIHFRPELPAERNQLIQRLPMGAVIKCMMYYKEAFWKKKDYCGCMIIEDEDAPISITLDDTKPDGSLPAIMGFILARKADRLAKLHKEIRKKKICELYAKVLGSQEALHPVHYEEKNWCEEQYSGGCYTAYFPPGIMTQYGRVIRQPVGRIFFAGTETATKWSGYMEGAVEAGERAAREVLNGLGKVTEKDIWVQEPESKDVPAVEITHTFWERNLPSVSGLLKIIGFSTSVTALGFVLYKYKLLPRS

Biological target: MAO-A enzyme (Homo sapiens, UniProt P21397)
Test: MAO-A enzyme inhibition, fluorometric method
Assay type: biochemical

## C#CCN(C)CCCOc1ccc(Cl)cc1Cl [Clorgyline, clorgyline, reference compound]
10^–3 M
  MAO-A % inhibition 10^–3 M: 96.94 ± 1.25%
10^–4 M
  MAO-A % inhibition 10^–4 M: 91.31 ± 1.31%
